The results in this text go back to US6043279A, “Compounds having selective activity for retinoid X receptors, and means for modulation of processes mediated by retinoid X receptors” (priority 1997, dated 2000).

In assay [1] the test system is ME180, a squamous cell carcinoma. Description: growth of ME180 tumor cells (cell number). It is filed as cell-based, human.
The subject of assay [2] is RPMI18226, a multiple myeloma. The assay can be described thus: growth of RPMI18226 tumor cells (cell number, semi-solid medium). It is filed as cell-based, human. Conditions: cell number and growth in semi-solid medium.

As to “Interferonα2b: Interferon, a compound which affects cellular proliferation”, the cell growth result in assay [1] and in assay [2] was “inhibit cell growth in a concentration-dependent manner” in each case.
